In ChEMBL document CHEMBL5528055, “Discovery and Identification of Novel 5-Hydroxy-4H-benzo[1,4]oxazin-3-one Derivatives as Potent β2-Adrenoceptor Agonists through Structure-Based Design, Synthesis, and Biological Evaluation” (J Med Chem, 2024):

Key:
Assay type in all cases: functional, organism-based
[1] = tested on: Rattus norvegicus; experiment: In vivo anti-inflammatory efficacy in cigarette-smoke/LPS-induced COPD Sprague-Dawley rat model assessed as decrease in IL-1beta in broncho-alveolar lavage fluid at 400 microg/kg, inhalation measured after 28 days treatment; conditions: Serum, dose 400.0 µg/kg, route inh, time 28.0 day
[2] = tested on: Rattus norvegicus; experiment: In vivo anti-inflammatory efficacy in cigarette-smoke/LPS-induced COPD Sprague-Dawley rat model assessed as decrease in TNFalpha in broncho-alveolar lavage fluid at 400 microg/kg, inhalation measured after 28 days treatment; conditions: Serum, dose 400.0 µg/kg, route inh, time 28.0 day
[3] = tested on: Rattus norvegicus; experiment: In vivo anti-inflammatory efficacy in cigarette-smoke/LPS-induced COPD Sprague-Dawley rat model assessed as decrease in IL-1beta in lung tissue at 400 microg/kg, inhalation measured after 28 days treatment; conditions: Serum, dose 400.0 µg/kg, route inh, time 28.0 day
[4] = tested on: Rattus norvegicus; experiment: In vivo anti-inflammatory efficacy in cigarette-smoke/LPS-induced COPD Sprague-Dawley rat model assessed as decrease in IL-6 in serum at 400 microg/kg, inhalation measured after 28 days treatment; conditions: dose 400.0 µg/kg, route inh, time 28.0 day
[5] = tested on: Rattus norvegicus; experiment: In vivo anti-inflammatory efficacy in cigarette-smoke/LPS-induced COPD Sprague-Dawley rat model assessed as decrease in TNFalpha in serum at 400 microg/kg, inhalation measured after 28 days treatment; conditions: dose 400.0 µg/kg, route inh, time 28.0 day
[6] = tested on: Rattus norvegicus; experiment: In vivo anti-inflammatory efficacy in cigarette-smoke/LPS-induced COPD Sprague-Dawley rat model assessed as reversal of pulmonary pathological changes at 400 microg/kg, inhalation measured after 28 days treatment by hematoxylin and eosin staining based assay; conditions: dose 400.0 µg/kg, route inh, time 28.0 day
[7] = tested on: Rattus norvegicus; experiment: In vivo anti-inflammatory efficacy in cigarette-smoke/LPS-induced COPD Sprague-Dawley rat model assessed as decrease in TNFalpha in lung tissue at 400 microg/kg, inhalation measured after 28 days treatment; conditions: Serum, dose 400.0 µg/kg, route inh, time 28.0 day
[8] = tested on: Rattus norvegicus; experiment: In vivo anti-inflammatory efficacy in cigarette-smoke/LPS -induced COPD Sprague-Dawley rat model assessed as decrease in lymphocytes in lung tissue at 400 microg/kg, inhalation measured after 28 days treatment; conditions: dose 400.0 µg/kg, route inh, time 28.0 day
[9] = tested on: Rattus norvegicus; experiment: In vivo anti-inflammatory efficacy in cigarette-smoke/LPS-induced COPD Sprague-Dawley rat model assessed as decrease in IL-1beta in serum at 400 microg/kg, inhalation measured after 28 days treatment; conditions: dose 400.0 µg/kg, route inh, time 28.0 day
[10] = tested on: Rattus norvegicus; experiment: In vivo anti-inflammatory efficacy in cigarette-smoke/LPS-induced COPD Sprague-Dawley rat model assessed as decrease in IL-6 in lung tissue at 400 microg/kg, inhalation measured after 28 days treatment; conditions: Serum, dose 400.0 µg/kg, route inh, time 28.0 day
[11] = tested on: Rattus norvegicus; experiment: In vivo anti-inflammatory efficacy in cigarette-smoke/LPS-induced COPD Sprague-Dawley rat model assessed as decrease in eosinophils in lung tissue at 400 microg/kg, inhalation measured after 28 days treatment; conditions: dose 400.0 µg/kg, route inh, time 28.0 day
[12] = tested on: Rattus norvegicus; experiment: In vivo anti-inflammatory efficacy in cigarette-smoke/LPS-induced COPD Sprague-Dawley rat model assessed as decrease in IL-6 in broncho-alveolar lavage fluid at 400 microg/kg, inhalation measured after 28 days treatment; conditions: Serum, dose 400.0 µg/kg, route inh, time 28.0 day
[13] = tested on: Rattus norvegicus; experiment: In vivo anti-inflammatory efficacy in cigarette-smoke/LPS -induced COPD Sprague-Dawley rat model assessed as decrease in total count of white blood cells in lung tissue at 400 microg/kg, inhalation measured after 28 days treatment; conditions: dose 400.0 µg/kg, route inh, time 28.0 day
[14] = tested on: Rattus norvegicus; experiment: In vivo anti-inflammatory efficacy in cigarette-smoke/LPS -induced COPD Sprague-Dawley rat model assessed as decrease in neutrophils in lung tissue at 400 microg/kg, inhalation measured after 28 days treatment; conditions: dose 400.0 µg/kg, route inh, time 28.0 day

Measured: Activity

OCc1cc(C(O)CNCCCCCCOCCCCc2ccccc2)ccc1O (centres undefined)
active: all assays above

Calls of active or inactive are those of the source.
